Biological target: CDK11A (Homo sapiens, UniProt Q9UQ88)
Settings: displacement of SNS-032-Atto590 probe (0.002 μM) from CDK11A-p58 (0.032 uM), fluorescence polarization
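Also: compound preincubated 30 min with CDK11A-p58, then probe added and polarization (mP) read 15 min later, 0% displacement is probe plus enzyme, 100% is probe alone.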

By UniProt entry, the sequences of proteins in these tests, tags left out. Residues count along the entry.
UniProt Q9UQ88, 346-783 limits assumed: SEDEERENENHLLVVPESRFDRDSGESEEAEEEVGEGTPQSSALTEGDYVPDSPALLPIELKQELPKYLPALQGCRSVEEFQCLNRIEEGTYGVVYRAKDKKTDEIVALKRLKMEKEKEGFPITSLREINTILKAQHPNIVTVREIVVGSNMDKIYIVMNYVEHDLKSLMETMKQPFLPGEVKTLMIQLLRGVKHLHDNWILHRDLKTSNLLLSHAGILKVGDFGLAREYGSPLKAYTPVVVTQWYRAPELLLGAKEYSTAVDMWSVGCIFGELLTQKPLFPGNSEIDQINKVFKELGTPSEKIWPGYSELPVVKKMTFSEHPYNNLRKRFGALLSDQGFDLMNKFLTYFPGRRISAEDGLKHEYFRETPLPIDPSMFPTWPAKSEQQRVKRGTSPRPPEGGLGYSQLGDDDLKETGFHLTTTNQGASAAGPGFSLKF

Structure (SMILES): N#Cc1ccc(Cl)c(-c2ccc3[nH]nc(NC(=O)C4CC(NCCF)C4)c3c2)c1 (stereo not shown)
- DC50: 0.061 µM

From patent US20250206724A1, “SUBSTITUTED 3-AMINO INDAZOLE DERIVATIVES AS KINASE INHIBITORS” (NERVIANO MEDICAL SCIENCES S.R.L., priority 2022, published 2025)
